Target: Norepinephrine transporter (Rattus norvegicus, UniProt Q9JIA2)

**Q.** How did the Ki turn out when `COc1ccc(C(CN(C)C)C2(O)CCCCC2)cc1` (stereo unspecified) [NSC_62923] was run?
**A.** 1.26 nM

Source: BindingDB's records for doi:10.1002/(SICI)1098-2396(19990601)32:3 (Mcgill University, 1999)
